# Antibody variant affinities, Ab-14 light chain, assay B

Source: Li et al. 2023 (doi:10.1038/s41467-023-39022-2), MIT Lincoln Laboratory and A-Alpha Bio; data file from the FLAb repository.

All variants were tested on one target, the spike HR2 peptide PDVDLGDISGINAS (SARS-CoV-2).

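The starting antibody came from a phage panning campaign against this peptide. This is the validation round: designs drawn from the data on random variants, tested in the same kind of assay. Their group label is 14L_En_Gibbs (En: ensemble of fine-tuned language models; Gibbs: Gibbs sampling). AlphaSeq pools MATa yeast showing the antibodies with MATalpha yeast showing the peptide. The frequency of each diploid, read from paired DNA barcodes, reflects how well the two displayed proteins bind. The ratio of observed to expected reads was calibrated, replicate by replicate, on BCL2-family standards whose Kd was known from biolayer interferometry. There are six technical replicates.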

The variants keep the heavy chain, the linker and the frameworks of Ab-14 (scFv order VH, a (GGGGS)3 linker, VL).
VH: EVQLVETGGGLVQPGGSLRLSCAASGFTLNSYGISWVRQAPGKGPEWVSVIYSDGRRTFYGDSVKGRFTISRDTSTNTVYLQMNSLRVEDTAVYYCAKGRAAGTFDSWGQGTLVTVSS
VL: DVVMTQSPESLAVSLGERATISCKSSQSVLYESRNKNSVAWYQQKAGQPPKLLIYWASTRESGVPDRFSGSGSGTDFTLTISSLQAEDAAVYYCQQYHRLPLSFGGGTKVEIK

The parent's light chain CDRs are KSSQSVLYESRNKNSVA, WASTRES, QQYHRLPLS; each variant's own CDRs replace them letter for letter.
Scale: log10 of Kd in nM, estimated from mating counts; low values are strong binders.
"nd" marks a missing value. The strain was present, yet no cells mated with the target were sequenced in that replicate, which points to weak or no binding.
The parent sequence was in this pool as ten entries: three were never detected, three once, and four in most replicates, with averages from 0.34 to 2.37.
Values of this round are not directly comparable with the first-round values of the same sequences.
Empty control strains, which show no peptide, gave a signal in 4% of pairings with all light chain designs; the median was 2.64 and 95% of these signals were weaker than 1.59. No background was subtracted. The control count says in how many pairings with the empty strains this scFv gave a signal, with their mean in brackets.
The authors' rule: three or more of the six replicates give a measured affinity, fewer mean a poor binder.

CDR-L1,CDR-L2,CDR-L3,"log10 Kd, replicates",control signals
ALSDWEWYGEENINRIA,DRSALEW,QQYGRLPLS,1.46 0.80 0.82 0.88 1.12 1.13,2 of 18 (2.99)
SIFHGDELYGQNERNIA,DVQARIV,QQYTRLPLH,0.38 0.10 0.02 -0.15 0.01 0.25,1 of 18 (1.93)
NLSWKQIGQNMESMAVA,GTEQRNA,QQYARLPLS,0.13 0.02 -0.10 -0.06 -0.11 -0.11,1 of 18 (2.89)
KLTHPTDLWLNHASSIA,DARISEE,QQYYWLPLT,0.83 2.14 1.00 2.19 2.44 1.88,1 of 18 (2.88)
YMSGQISGGWNQQEAIA,EVTYKED,QQYYQLPLS,nd nd nd nd nd nd,0 of 18
NLSIQNQPQNMFANNVA,QTESRCE,QQYNQLPLA,1.35 0.74 0.28 0.71 0.81 1.16,0 of 18
SMFEKEYEELQPEDNIA,DATERMV,QQYFRLPLL,1.41 2.03 1.47 1.62 1.54 1.72,1 of 18 (3.07)
QFQFEDVQYTVNEQAIA,EENQRMQ,QQYFRLPLI,2.07 1.56 2.11 1.39 1.39 1.53,1 of 18 (2.93)
KLWAYTQGLERNMQNIA,DGIYRVT,QQYDRLPLS,0.15 0.21 0.10 -0.11 0.08 0.61,0 of 18
HIDQVKYDQKTAENNIA,SGAERVW,QQYSRLPFS,-0.08 0.21 0.33 0.13 0.11 0.24,2 of 18 (2.50)
AIDSHGLGTQEYYNSIA,EEHVKVR,QQYDRLPLS,nd nd nd 0.81 nd 1.51,0 of 18
HIDQVKAEQKNAENNIA,SGAQRVW,QQYSRLPFI,0.16 0.10 -0.05 -0.18 0.05 -0.08,1 of 18 (2.26)
RFDQTEQEGIQDYNSVA,QGSQSGT,QHYSRLPLS,nd 3.29 nd 2.35 nd nd,0 of 18
TLAQGIYEPVRKSNNVA,EASHVGD,QQYERLPLE,0.97 1.22 1.04 0.79 0.75 1.21,2 of 18 (2.68)
QLGQTIWADIMNKKSIA,AEETLID,QQYNRLPFS,0.49 0.42 0.27 0.55 0.33 0.48,2 of 18 (1.93)
NLGGEDFNDTYGMKAVA,DVSEVGD,QHYSRLPLS,1.05 1.32 1.18 1.06 1.34 1.56,0 of 18
RISAHVYDETNTQENVA,NEHIRAN,QQYSRLPLS,0.50 0.51 0.05 0.40 0.70 0.50,1 of 18 (2.74)
MLTIEGDETHEKAFSIA,NVTNKAY,QQYARLPLT,0.97 0.71 0.89 0.82 1.16 0.96,3 of 18 (2.54)
TMNHELIYGVPMMNNVA,AGSQKLA,QQYYRLPLS,-0.20 0.14 -0.20 -0.02 0.11 0.17,0 of 18
MLTWGDDHTTGHQNAIA,HAHERNT,QQYALLPLT,1.03 1.48 0.91 1.96 1.88 1.35,1 of 18 (2.85)
KAQLDHEGQPRNHNSIA,EGISRTT,QQYFRLPLM,nd nd nd nd 1.60 2.83,1 of 18 (1.76)
KITDKFLTEGNGRQNIA,HGMVALE,QQYQQLPLA,0.08 0.20 0.11 -0.03 0.10 0.28,1 of 18 (2.80)
SVQYFPEESLRGASAIA,DVNIAVM,QQYSRLPLA,0.43 0.39 0.19 0.06 0.39 0.43,0 of 18
HIDQVKAEQKTAENNIA,SGAERVW,QQYSRLPFS,0.55 0.49 0.48 0.46 0.54 0.56,0 of 18
RVTIISDPYMENRNNIA,QTSERAH,QQYQMLPLA,0.22 -0.30 -0.30 -0.42 -0.30 -0.33,2 of 18 (2.12)
ELMVFPTNAGMTQANIA,DASHSTD,QQYGRLPLM,1.17 1.28 1.23 1.26 0.90 1.32,0 of 18
RFTEHILGLENKIYAIA,NATVLME,QQYFRLPFA,0.57 0.80 0.36 0.32 0.52 1.00,1 of 18 (3.05)
QVTNISDPYGRNRNNIA,QTSERAH,QQYQMLPLA,-0.49 -0.51 -0.72 -1.15 0.49 -0.56,0 of 18
HFAVNLTSLDSSKQNVA,NASTVMV,QYYNRLPLS,2.65 1.71 2.99 1.92 1.63 2.00,0 of 18
RLDSVMGQLTNRAQNVA,NATTVIA,QSYMRLPLV,0.57 0.61 0.31 0.38 0.42 0.56,0 of 18
RLTQQMAGFNRHANAIA,STAERQW,QQYARLPIS,1.33 0.78 0.70 0.87 0.68 1.13,3 of 18 (2.79)
QFDLFENYQGMQNASIA,GETNRHT,QQYQKLPLS,nd nd nd nd nd nd,1 of 18 (2.56)
SLYEAMQTGGLHTSNIA,DANQQMR,QHYMRLPLA,0.36 0.03 0.11 0.22 0.02 0.32,0 of 18
RLRELNFESGNARNNIA,DAHIHEV,QQYSWLPLF,0.92 1.06 1.60 0.87 0.80 1.32,0 of 18
NMQMQQDRMQDAKQNIA,GVDMREE,QQYFRLPFL,0.05 0.04 0.39 0.02 0.32 -0.14,0 of 18

The 6 strongest on average among those seen in every replicate, once more:

CDR-L1,CDR-L2,CDR-L3,"log10 Kd, replicates",control signals
QVTNISDPYGRNRNNIA,QTSERAH,QQYQMLPLA,-0.49 -0.51 -0.72 -1.15 0.49 -0.56,0 of 18
RVTIISDPYMENRNNIA,QTSERAH,QQYQMLPLA,0.22 -0.30 -0.30 -0.42 -0.30 -0.33,2 of 18 (2.12)
NLSWKQIGQNMESMAVA,GTEQRNA,QQYARLPLS,0.13 0.02 -0.10 -0.06 -0.11 -0.11,1 of 18 (2.89)
TMNHELIYGVPMMNNVA,AGSQKLA,QQYYRLPLS,-0.20 0.14 -0.20 -0.02 0.11 0.17,0 of 18
HIDQVKAEQKNAENNIA,SGAQRVW,QQYSRLPFI,0.16 0.10 -0.05 -0.18 0.05 -0.08,1 of 18 (2.26)
SIFHGDELYGQNERNIA,DVQARIV,QQYTRLPLH,0.38 0.10 0.02 -0.15 0.01 0.25,1 of 18 (1.93)